AlphaSeq binding of Ab-14 heavy chain variants to a spike HR2 peptide

Antigen: PDVDLGDISGINAS, a 14-residue peptide of the SARS-CoV-2 spike HR2 region.

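This is the validation round: designs drawn from the data on random variants, tested in the same kind of assay. Their group label is 14H_Rand (Rand: our label for a block that the file lists under HC and that is probably the random mutants of the ten best first-round binders). AlphaSeq pools MATa yeast showing the antibodies with MATalpha yeast showing the peptide. Mating (16 h, 30 °C) was followed by selection of diploids and sequencing of their barcodes. The ratio of observed to expected reads was calibrated, replicate by replicate, on BCL2-family standards whose Kd was known from biolayer interferometry. There are six technical replicates.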

Parent: Ab-14, a human scFv built as VH, a 15-residue (Gly4Ser)3 linker, VL. Only the CDRs of the heavy chain vary.
VH: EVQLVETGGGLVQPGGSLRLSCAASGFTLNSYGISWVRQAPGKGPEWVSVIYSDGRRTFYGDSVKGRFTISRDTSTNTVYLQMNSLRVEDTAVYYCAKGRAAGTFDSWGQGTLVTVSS
VL: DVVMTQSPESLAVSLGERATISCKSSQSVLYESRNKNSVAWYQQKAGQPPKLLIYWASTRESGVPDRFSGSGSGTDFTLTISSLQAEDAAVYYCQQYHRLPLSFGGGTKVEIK

Variants are written as CDR1, CDR2 and CDR3 of the heavy chain (limits as in the source). Parent: GFTLNSYGIS, VIYSDGRRTFYGDSVK, GRAAGTFDS. Numbers give log10(Kd / nM), so 0 is 1 nM and 3 is 1 µM. Smaller is tighter. An entry "n.d." has no value in the source: the pair was not observed among the diploids in that replicate. This suggests poor binding but is not conclusive. Nonspecific signal, from three strains lacking the peptide, appeared in 1% of pairings of all heavy chain designs, centred on 2.08 (5% of these signals below 0.84); values are not corrected for it. For each scFv, signals with the empty controls are counted beside the result, with their mean in brackets. Of ten entries with the parent sequence, four were seen in most replicates (averages 0.34 to 2.37), three in one and three in none, so single entries are noisy. The range of this assay differs from that of the first round, and the authors advise against merging the two. The authors averaged sequences with at least three values out of six and counted those with two or fewer as poor binders.

CDR-H1	CDR-H2	CDR-H3	log10 Kd, replicates	signal with controls
GFTLNSYGIS	VPYADGRRTFYGDSVK	GRAAGTNKS	n.d. n.d. n.d. n.d. n.d. n.d.	0 of 18
KFYLNSYGIN	VIYSDGIRTFYDDSVK	GQLAGTFDS	n.d. n.d. n.d. n.d. n.d. n.d.	0 of 18
GFTLNEYGIS	VIYSDGRRTFYGDSVK	GRAAVTTDQ	n.d. n.d. n.d. n.d. 1.03 n.d.	0 of 18
GFTLNSYGIS	VIYSDGRRTFYDSSVK	GQLAGTFDS	1.51 2.02 1.79 1.18 1.55 2.12	0 of 18
GFTLNQYGIS	VIFSDGRRTFNSDSVK	GRAAGFFDS	n.d. n.d. n.d. n.d. n.d. n.d.	1 of 18 (1.98)
GFTLDSYGIS	VIYSDGRRTWYGDSTK	GRAAGNALL	n.d. n.d. n.d. n.d. n.d. n.d.	0 of 18
GFDLNSYGIS	VIYSDGRRTFYGDSVK	GRRAGWFNS	n.d. n.d. n.d. n.d. n.d. n.d.	1 of 18 (1.73)
GFTLDSYGIS	VIYCDGRRTFYGDSVK	GRAAGTALS	n.d. n.d. n.d. n.d. n.d. 2.58	2 of 18 (1.86)
GFTLNEYGIS	VIYSDGRRTFVTDSVK	GRFAGTFDS	1.17 0.36 0.41 0.06 0.33 1.15	0 of 18
GFDLNSYGIS	VIYSDGRRTFYGDSVK	GRAAGWFNG	n.d. n.d. n.d. n.d. n.d. n.d.	0 of 18
GFTLNDYGDS	VIYSDGRRTQYIDSVK	GRAMGTFDS	n.d. n.d. 1.66 n.d. n.d. n.d.	1 of 18 (1.15)
GFTLNEMGVS	VIYSDGRRTFYNDSVK	GRFAGTFDT	n.d. n.d. n.d. n.d. n.d. 2.38	0 of 18
GFTLDSYHIS	VIYSDGRRTFYGDSVK	GRNAGTALS	n.d. n.d. n.d. n.d. n.d. n.d.	0 of 18
GWTLGEYGIS	VIYSDGRRGFYTDSVK	GRFAGTFDS	n.d. n.d. 1.86 2.31 1.92 n.d.	0 of 18
GFMLNSKGIS	VIYADSRRTFYGDSVK	GRAAGTNTS	n.d. n.d. n.d. n.d. n.d. n.d.	0 of 18
GFTLYSYGIS	VIYFDGRRTFYCDSVK	GRARGTFDS	n.d. n.d. 3.12 n.d. n.d. n.d.	1 of 18 (0.56)
GFTLNQYGIS	VIYSDGRRTFYSDSVK	WRAAGFFDS	n.d. n.d. 2.62 n.d. n.d. n.d.	0 of 18
GFTLNDYGIS	VIYSDGRRTQYIDSVK	GLAAGNFDS	n.d. n.d. n.d. n.d. n.d. n.d.	0 of 18
GFTLNSGGIS	VIYSDGRRTFYSDSVK	GRAGGSFDS	n.d. n.d. n.d. n.d. n.d. n.d.	1 of 18 (2.61)
GFTLNEYVIS	VAYSDGRRTFYTDSVK	GRFAGTFDS	n.d. n.d. n.d. n.d. n.d. n.d.	0 of 18
IFTLNEYGIS	VIYGDGRRYFYGDSVK	GRAAVTFDQ	n.d. n.d. n.d. n.d. n.d. n.d.	0 of 18
CFTLNQYHVS	VIYSDGRRTFYSDSVK	GRAAGFFDS	n.d. n.d. n.d. n.d. n.d. n.d.	0 of 18
GFTLNSYGIS	VIYSTGRRTVYSDSVK	GRAGGTFQS	n.d. n.d. n.d. n.d. n.d. n.d.	1 of 18 (2.90)
GFTLNEYGIP	VIYSDGRRTFYGDSVK	GRAAVTFDQ	n.d. n.d. n.d. n.d. n.d. n.d.	0 of 18
GFTLIQYGIS	VIYSDGRRTFYEDSVK	QRAAGFFDS	n.d. n.d. n.d. n.d. n.d. n.d.	0 of 18
GFTNNDYGIS	VIYSDGRRTFYGDSVK	GRAARTFIS	n.d. n.d. n.d. n.d. n.d. n.d.	0 of 18
GFTLNDYGIS	VIYYDGRRTFYGDSVK	GRAALTYIS	n.d. n.d. n.d. n.d. n.d. n.d.	1 of 18 (1.80)
GFTLNAAGIS	VIGSDGRRTFYGDSVK	GRAAGTNKS	n.d. n.d. n.d. n.d. n.d. n.d.	0 of 18
GFTLNQYGIS	VIYSDGRRTFYSDSVK	GRAGGMDDS	0.24 -0.42 -0.40 -0.42 -0.34 0.11	2 of 18 (2.16)
GFTLNEYGIS	VRYSDGRRTFYGDSVK	GFASVTFDQ	n.d. n.d. n.d. n.d. n.d. n.d.	0 of 18

Repeated from above, the 3 best binders with a signal in all replicates:

| CDR-H1 | CDR-H2 | CDR-H3 | log10 Kd, replicates | signal with controls |
|---|---|---|---|---|
| GFTLNQYGIS | VIYSDGRRTFYSDSVK | GRAGGMDDS | 0.24 -0.42 -0.40 -0.42 -0.34 0.11 | 2 of 18 (2.16) |
| GFTLNEYGIS | VIYSDGRRTFVTDSVK | GRFAGTFDS | 1.17 0.36 0.41 0.06 0.33 1.15 | 0 of 18 |
| GFTLNSYGIS | VIYSDGRRTFYDSSVK | GQLAGTFDS | 1.51 2.02 1.79 1.18 1.55 2.12 | 0 of 18 |

From the AlphaSeq antibody data of Li et al. 2023 (doi:10.1038/s41467-023-39022-2), copy in the FLAb collection.